Measured values from ChEMBL document CHEMBL1135338, “Protease inhibitors: synthesis of matrix metalloproteinase and bacterial collagenase inhibitors incorporating 5-amino-2-mercapto-1,3,4-thiadiazole zinc binding functions” (Bioorg Med Chem Lett, 2002).

Amino acid sequences for entries named in this document (tags omitted). A change or cut given only in a name is not applied to a line headed by its entry.
UniProt P14780: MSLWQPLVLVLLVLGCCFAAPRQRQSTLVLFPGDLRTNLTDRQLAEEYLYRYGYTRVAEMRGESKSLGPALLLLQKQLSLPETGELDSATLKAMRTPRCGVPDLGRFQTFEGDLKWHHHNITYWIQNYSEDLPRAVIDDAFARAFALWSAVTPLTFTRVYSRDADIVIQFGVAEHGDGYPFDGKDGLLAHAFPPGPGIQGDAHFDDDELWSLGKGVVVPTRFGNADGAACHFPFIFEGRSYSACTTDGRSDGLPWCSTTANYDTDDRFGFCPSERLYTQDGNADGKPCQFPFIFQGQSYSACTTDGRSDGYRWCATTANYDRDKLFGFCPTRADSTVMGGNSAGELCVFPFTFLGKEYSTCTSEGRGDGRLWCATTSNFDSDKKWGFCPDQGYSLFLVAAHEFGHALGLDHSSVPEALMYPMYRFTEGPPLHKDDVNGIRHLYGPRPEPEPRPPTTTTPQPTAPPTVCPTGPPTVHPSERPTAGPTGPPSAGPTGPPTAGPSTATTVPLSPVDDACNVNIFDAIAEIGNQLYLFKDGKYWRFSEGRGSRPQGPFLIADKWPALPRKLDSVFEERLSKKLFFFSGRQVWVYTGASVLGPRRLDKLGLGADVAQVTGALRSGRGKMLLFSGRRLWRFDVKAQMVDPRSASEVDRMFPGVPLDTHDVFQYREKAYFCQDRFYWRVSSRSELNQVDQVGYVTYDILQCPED

Target: Matrix metalloproteinase-9 (Homo sapiens, UniProt P14780)
Assay: Inhibition of human matrix metalloprotease-9

Ki: 23 nM
Structure (SMILES): COc1ccc(S(=O)(=O)N(Cc2ccccc2)c2c(C)cccc2C(=O)NO)cc1
